Molecules are shown by their SMILES.

Sequences of proteins named here, by UniProt entry; tags and fusion partners are left off.
UniProt O75874, whole entry R132H: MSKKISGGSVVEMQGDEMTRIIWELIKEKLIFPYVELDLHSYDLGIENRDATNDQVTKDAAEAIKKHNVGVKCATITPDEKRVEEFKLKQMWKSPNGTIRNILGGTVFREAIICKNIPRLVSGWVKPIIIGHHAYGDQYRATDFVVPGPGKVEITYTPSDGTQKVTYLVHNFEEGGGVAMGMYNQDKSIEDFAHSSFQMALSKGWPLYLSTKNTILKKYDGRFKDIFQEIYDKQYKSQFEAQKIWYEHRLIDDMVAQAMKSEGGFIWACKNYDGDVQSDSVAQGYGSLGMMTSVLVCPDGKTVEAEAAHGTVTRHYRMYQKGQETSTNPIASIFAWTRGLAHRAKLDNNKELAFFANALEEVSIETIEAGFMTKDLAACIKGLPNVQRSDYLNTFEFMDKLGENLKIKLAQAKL

This assay concerns the target IDH1 R132H enzyme (Homo sapiens (Human), UniProt O75874, R132H). Description: Mutant IDH1 R132H biochemical assay. The conditions noted are these: NADPH consumption, luminescent readout; 1.5 nM enzyme, 250 μM α-KG, 1 μM NADPH, 32° C., 30 minutes; test range 0.002-10 μM. As to the method: mIDH1 catalyzes the NADPH-dependent reduction of alpha-ketoglutarate (α-KG) to (2R)-2-hydroxyglutarate (2-HG). NADPH consumption was measured by luminescent readout.
The biochemical reactions were performed at 32° C. in 384-well plates using a reaction volume of 41 μl and the following assay buffer conditions: 50 mM Tris pH 7.5, 100 mM NaCl, 20 mM MgCl2, 0.05% BSA, 0.01% Brij, 1 μM NADPH, and 250 μM α-KG. […] Test compounds were used in a concentration range between 0.002 and 10 μM. The final DMSO concentration was 2.4%.
The reaction was incubated for 30 minutes, then 40 μl of detection mix (0.75 μg/ml Luciferase, 0.02 U/ml Oxidoreductase, 4 μg/ml FMN, 2 μl/ml Decanal/Ethanol, 50 mM Tris pH 7.5, 0.5% Glycerin, 0.01% Tween-20, 0.05% BSA) was added. Luminescence was measured on a luminescent reader (10 seconds measuring time, 1 second integration period, 30% sensitivity). The decrease in luminescence is proportional to mIDH1 activity. IC50 values are determined by interpolation from plots of relative luminescence versus inhibitor concentration.
The molecule `COC(=O)c1ccc2nc(Nc3ccc(OC(F)(F)F)cc3)n([C@H]3C[C@@H](C)CC(C)(C)C3)c2c1` (single isomer, unassigned; enantiomer a) [Example 2-1-1, methyl 2-{[4-(trifluoromethoxy)phenyl]amino}-1-[(cis)-3,3,5-trimethylcyclohexyl]-1H-benzimidazole-6-carboxylate, enantiomer A] returned an IC50 of 310 nM.

As for `C[C@@H]1C[C@H](n2c(Nc3ccc(OC(F)(F)F)cc3)nc3ccc(C(=O)N4CCCCC4)cc32)CC(C)(C)C1` (racemic) [Example 2-17, (±) piperidin-1-yl(2-{[4-(trifluoromethoxy)phenyl]amino}-1-[(cis)-3,3,5-trimethylcyclohexyl]-1H-benzimidazol-6-yl)methanone], the midpoint of inhibition, the IC50, lay at 580 nM.

In turn, `CCN(C)C(=O)c1ccc2nc(Nc3ccc(OC(F)(F)F)cc3)n([C@H]3C[C@@H](C)CC(C)(C)C3)c2c1` (single isomer, unassigned; enantiomer b) [Example 2-6-2, N-ethyl-N-methyl-2-{[4-(trifluoromethoxy)phenyl]amino}-1-[(cis)-3,3,5-trimethylcyclohexyl]-1H-benzimidazole-6-carboxamide, enantiomer B] yielded an IC50 of 400 nM.

Molecule `C[C@@H]1C[C@H](n2c(Nc3ccc(OC(F)(F)F)cc3)nc3ccc(C(=O)NC4CCS(=O)(=O)CC4)cc32)CC(C)(C)C1` (racemic) [Example 2-18, (±) N-(1,1-dioxidotetrahydro-2H-thiopyran-4-yl)-2-{[4-(trifluoromethoxy)phenyl]amino}-1-[(cis)-3,3,5-trimethylcyclohexyl]-1H-benzimidazole-6-carboxamide] came in with a half-maximal inhibitory concentration (IC50) of 5300 nM.

`C[C@@H]1C[C@H](n2c(Nc3ccc(OC(F)(F)F)cc3)nc3ccc(C(=O)N4CCOCC4)cc32)CC(C)(C)C1` (single isomer, unassigned; enantiomer a) [Example 2-16-1, morpholin-4-yl(2-{[4-(trifluoromethoxy)phenyl]amino}-1-[(cis)-3,3,5-trimethylcyclohexyl]-1H-benzimidazol-6-yl)methanone, enantiomer A] registered an IC50 of 160 nM.

`C[C@@H]1C[C@H](n2c(Nc3ccc(OC(F)(F)F)cc3)nc3ccc(C(=O)NCC(=O)O)cc32)CC(C)(C)C1` (racemic) [Example 2-12, (±) N-[(2-{[4-(trifluoromethoxy)phenyl]amino}-1-[(cis)-3,3,5-trimethylcyclohexyl]-1H-benzimidazol-6-yl)carbonyl]glycine] gave an IC50 not below 10000 nM.

Molecule `C[C@@H]1C[C@H](n2c(Nc3ccc(OC(F)(F)F)cc3)nc3ccc(C(=O)N4CCCCC4)cc32)CC(C)(C)C1` (single isomer, unassigned; enantiomer a) [Example 2-17-1, piperidin-1-yl(2-{[4-(trifluoromethoxy)phenyl]amino}-1-[(cis)-3,3,5-trimethylcyclohexyl]-1H-benzimidazol-6-yl)methanone, enantiomer A] gave an IC50 of 1100 nM.

In turn, `COC(=O)c1ccc2nc(Nc3ccc(OC(F)(F)F)cc3)n([C@H]3C[C@@H](C)CC(C)(C)C3)c2c1` (single isomer, unassigned; enantiomer b) [Example 2-1-2, methyl 2-{[4-(trifluoromethoxy)phenyl]amino}-1-[(cis)-3,3,5-trimethylcyclohexyl]-1H-benzimidazole-6-carboxylate, enantiomer B] registered an IC50 of 50 nM.

`C[C@@H]1C[C@H](n2c(Nc3ccc(OC(F)(F)F)cc3)nc3ccc(C(=O)O)cc32)CC(C)(C)C1` (single isomer, unassigned; enantiomer b) [Example 2-3-2, 2-{[4-(trifluoromethoxy)phenyl]amino}-1-[(cis)-3,3,5-trimethylcyclohexyl]-1H-benzimidazole-6-carboxylic acid, enantiomer B] gave an IC50 of 3400 nM.

In the case of `CCN(C)C(=O)c1ccc2nc(Nc3ccc(OC(F)(F)F)cc3)n([C@H]3C[C@@H](C)CC(C)(C)C3)c2c1` (single isomer, unassigned; enantiomer a) [Example 2-6-1, N-ethyl-N-methyl-2-{[4-(trifluoromethoxy)phenyl]amino}-1-[(cis)-3,3,5-trimethylcyclohexyl]-1H-benzimidazole-6-carboxamide, enantiomer A], the IC50 stood at 150 nM.

Turning to `CCN(CC)C(=O)c1ccc2nc(Nc3ccc(OC(F)(F)F)cc3)n([C@H]3C[C@@H](C)CC(C)(C)C3)c2c1` (single isomer, unassigned; enantiomer a) [Example 2-7-1, N,N-diethyl-2-{[4-(trifluoromethoxy)phenyl]amino}-1-[(cis)-3,3,5-trimethylcyclohexyl]-1H-benzimidazole-6-carboxamide, enantiomer A], the IC50 was 240 nM.

The term IC50 denotes the concentration that inhibits the measured activity by half.

For the origin of these results see patent US10138226B2, “Benzimidazol-2-amines as MIDH1 inhibitors” (Bayer Pharma Aktiengesellschaft, priority 2014, dated 2018).
